Test results reported in paper PMC12075652, “ATP functions as a pathogen-associated molecular pattern to activate the E3 ubiquitin ligase RNF213” (Nature Communications, 2025).

Amino acid sequences for entries named in this document (tags omitted).
UniProt P68036, whole entry: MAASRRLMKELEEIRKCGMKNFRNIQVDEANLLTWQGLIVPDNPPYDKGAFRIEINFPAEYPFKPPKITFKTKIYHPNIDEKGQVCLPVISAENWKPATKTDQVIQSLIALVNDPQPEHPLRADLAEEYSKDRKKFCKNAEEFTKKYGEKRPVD

Target: T1, UBE2L3 (human, UniProt P68036 1-154)
T1 construct: UBE2L3, human E2 ubiquitin-conjugating enzyme; source: E. coli, purified (size-exclusion chromatography)
Assay: ITC; UBE2L3 (70 µM) in the cell, CTD domain (715 µM) in the syringe, 13 injections; 20 mM Na2HPO4, 200 mM NaCl, 0.5 mM TCEP
Conditions: both partners purified

Kd: > 500 µM
B1: RNF213 CTD domain (human residues 4986-5207), untagged (domain or fragment, UniProt Q63HN8 4986-5207, looked up)
chain: NYEHLFMDIKNKMAQDSLPSSVISAISGQLQSYSDACEVLSVVEVTLGFLSTAGGDPNMQLNVYTQDILQMGDQTIHVLKALNRCQLKHTIALWQFLSAHKSEQLLRLHKEPFGEISSRYKADLSPENAKLLSTFLNQTGLDAFLLELHEMIILKLKNPQTQTEERFRPQWSLRDTLVSYMQTKESEILPEMASQFPEEILLASCVSVWKTAAVLKWNREMR
notes: also called isolated purified CTD domain; source: E. coli BL21(DE3), purified (glutathione sepharose, PreScission cleavage, SEC)
